These results are taken from ChEMBL document CHEMBL3714717, “Family of PFKFB3 inhibitors with anti-neoplastic activities” (2013).

Protein sequences, listed by entry. Tags and fused reporters are not part of them. Lines headed by an entry give the natural chain unless they say otherwise; changes in a name come on top.
UniProt Q16875: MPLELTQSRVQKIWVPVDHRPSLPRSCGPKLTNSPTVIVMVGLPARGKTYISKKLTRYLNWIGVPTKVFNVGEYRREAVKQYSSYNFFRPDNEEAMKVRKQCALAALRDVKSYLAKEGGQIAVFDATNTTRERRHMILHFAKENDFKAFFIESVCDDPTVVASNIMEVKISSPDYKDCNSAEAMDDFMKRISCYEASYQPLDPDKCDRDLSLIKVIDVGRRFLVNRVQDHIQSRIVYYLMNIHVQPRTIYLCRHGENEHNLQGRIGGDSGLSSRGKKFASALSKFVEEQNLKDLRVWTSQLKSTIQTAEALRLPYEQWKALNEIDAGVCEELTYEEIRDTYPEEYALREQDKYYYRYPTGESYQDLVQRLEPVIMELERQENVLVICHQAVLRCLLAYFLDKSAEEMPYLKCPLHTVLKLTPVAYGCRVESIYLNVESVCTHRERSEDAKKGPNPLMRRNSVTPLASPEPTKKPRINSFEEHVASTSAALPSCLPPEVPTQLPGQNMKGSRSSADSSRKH

The target in this assay is 6-phosphofructo-2-kinase/fructose-2,6-bisphosphatase 3 (Homo sapiens, UniProt Q16875). Kind of assay: Mixed type inhibition of human PFKFB3 expressed in Escherichia coli BL21 (DE3) assessed as reduction in NADH consumption in presence of high levels of fructose-6-phosphate incubated for 15 mins by spectrophotometry based pyruvate kinase and LDH enzyme coupled kinetic assay.

SMILES strings stand for the structures. The source made the active and inactive calls. The calls are words filed in the database; no cut-off is given here.

As to `O=C(/C=C/c1cccnc1)c1ccncc1`, the inhibition entry was “inactive”.
